Source: patent EP3795574A1, “SYNTHESIS AND USAGE OF 1,2-DIAMINODIAMANTANE PLATINUM(II) COMPLEXES” (Justus-Liebig-Universität Gießen, priority 2019, dated 2021)

System: A2780cis
Assay: Cellular viability assay (resazurin / Alamar Blue, 72 h), cisplatin-resistant variant
Details: 72 h at 37 °C, compared to cisplatin, result in words

“cis-[1,2-diaminodiamantane]dichlorideplatinum(II) [(R,R)-1]” was tested, and the cytotoxicity was “superior cytotoxicity compared to cisplatin”.
